From US12539304B2, “Combination of an anaplastic lymphoma kinase inhibitor and a cyclin dependent kinase inhibitor” (Pfizer Inc., priority 2020, dated 2026)

System: MGH979-6.7R8 (AlecR, G1202R) cells
Assay: CyQUANT cell proliferation assay, MGH979-6.7R8
Type: cell-based, human
Settings: FIG. 7C
Method: MGH048-4F (Crizo/Alec/LorlaR), MGH902-1C (Crizo/CeriR) and MGH979-6.7R8 (AlecR, G1202R) were acquired from MGH through a research contract. Specimens from patients relapsed on various lines ALK inhibitor therapies were utilized to derive the cell lines. […] Cell viability and IC50 were measured in standard CyQUANT cell proliferation assays.

| Structure (SMILES) | Sensitivity to single agent |
| --- | --- |
| CCc1cc2c(cc1N1CCC(N3CCOCC3)CC1)C(C)(C)c1[nH]c3cc(C#N)ccc3c1C2=O [alectinib] | resistant |
| C[C@@H](Oc1cc(-c2cnn(C3CCNCC3)c2)cnc1N)c1c(Cl)ccc(F)c1Cl [crizotinib] | resistant |
